Measured values taken from ChEMBL document CHEMBL1151781, “Selectivity of inhibitors of endocannabinoid biosynthesis evaluated by activity-based protein profiling” (Bioorg Med Chem Lett, 2008).
Activity calls are given as the source filed them.

Experiments:
Format in all cases: tissue-based
[1] = target: T1, Neutral cholesterol ester hydrolase 1 (Mus musculus) (UniProt Q8BLF1); test: Inhibition of KIAA1363 in mouse brain at 0.01 to 100 uM treated for 30 mins by SDS-PAGE using rhodamine-tagged FP probe
T1 sequence (whole entry): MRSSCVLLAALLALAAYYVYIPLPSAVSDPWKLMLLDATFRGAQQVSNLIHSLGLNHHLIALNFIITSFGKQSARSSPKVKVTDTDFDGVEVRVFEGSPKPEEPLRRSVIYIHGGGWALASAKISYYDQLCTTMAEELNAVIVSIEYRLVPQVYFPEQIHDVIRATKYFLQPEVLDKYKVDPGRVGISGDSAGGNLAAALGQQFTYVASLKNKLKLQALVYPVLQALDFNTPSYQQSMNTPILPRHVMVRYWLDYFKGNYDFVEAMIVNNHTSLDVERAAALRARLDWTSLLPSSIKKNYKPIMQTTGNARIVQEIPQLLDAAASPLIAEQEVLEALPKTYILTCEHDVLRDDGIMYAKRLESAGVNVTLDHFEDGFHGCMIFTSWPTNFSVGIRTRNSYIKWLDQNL
In short: (§1)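 Mouse brain membrane proteome preincubated with inhibitor across 0.01-100 μM for 30 min. A rhodamine-tagged fluorophosphonate probe (FP-Rh) was then added for 60 min. Samples were resolved by SDS-PAGE, and probe labeling of each hydrolase band was read by in-gel fluorescence scanning.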

[2] = target: T2, Fatty-acid amide hydrolase 1 (Mus musculus) (UniProt O08914); test: Inhibition of FAAH in mouse brain at 0.01 to 100 uM treated for 30 mins by SDS-PAGE using rhodamine-tagged FP probe; in short: as §1
T2 sequence (whole entry): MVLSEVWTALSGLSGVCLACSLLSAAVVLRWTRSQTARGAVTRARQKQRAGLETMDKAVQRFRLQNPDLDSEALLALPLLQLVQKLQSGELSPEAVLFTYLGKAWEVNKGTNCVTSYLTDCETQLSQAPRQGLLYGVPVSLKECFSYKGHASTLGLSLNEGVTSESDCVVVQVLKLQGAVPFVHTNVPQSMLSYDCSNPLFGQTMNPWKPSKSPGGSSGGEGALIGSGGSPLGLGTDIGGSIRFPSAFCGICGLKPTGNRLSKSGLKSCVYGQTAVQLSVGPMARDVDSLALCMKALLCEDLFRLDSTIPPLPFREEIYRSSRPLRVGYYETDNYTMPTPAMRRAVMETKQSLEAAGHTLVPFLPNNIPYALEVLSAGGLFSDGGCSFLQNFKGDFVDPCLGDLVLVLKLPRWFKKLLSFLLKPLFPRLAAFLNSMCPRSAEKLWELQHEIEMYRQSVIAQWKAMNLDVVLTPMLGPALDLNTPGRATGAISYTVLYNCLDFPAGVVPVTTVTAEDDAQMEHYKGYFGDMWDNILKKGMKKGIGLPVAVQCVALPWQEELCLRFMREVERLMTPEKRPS

[3] = target: T3, Lysophosphatidylserine lipase ABHD12 (Mus musculus) (UniProt Q99LR1); test: Inhibition of ABHD12 in mouse brain at 0.01 to 100 uM treated for 30 mins by SDS-PAGE using rhodamine-tagged FP probe; in short: as §1
T3 sequence (whole entry): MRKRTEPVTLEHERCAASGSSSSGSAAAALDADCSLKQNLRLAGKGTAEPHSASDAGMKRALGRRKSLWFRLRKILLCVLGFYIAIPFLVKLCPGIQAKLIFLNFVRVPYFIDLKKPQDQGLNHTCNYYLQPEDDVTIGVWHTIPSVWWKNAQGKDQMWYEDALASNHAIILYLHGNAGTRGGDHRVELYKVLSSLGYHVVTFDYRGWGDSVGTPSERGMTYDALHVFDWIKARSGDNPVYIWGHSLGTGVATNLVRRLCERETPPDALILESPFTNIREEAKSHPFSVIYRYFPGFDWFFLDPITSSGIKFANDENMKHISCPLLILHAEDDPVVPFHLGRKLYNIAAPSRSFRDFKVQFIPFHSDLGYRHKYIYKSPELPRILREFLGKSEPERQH

[4] = target: T4, Monoglyceride lipase (Mus musculus) (UniProt O35678); test: Inhibition of MAGL in mouse brain at 0.01 to 100 uM treated for 30 mins by SDS-PAGE using rhodamine-tagged FP probe; in short: as §1
T4 sequence (whole entry): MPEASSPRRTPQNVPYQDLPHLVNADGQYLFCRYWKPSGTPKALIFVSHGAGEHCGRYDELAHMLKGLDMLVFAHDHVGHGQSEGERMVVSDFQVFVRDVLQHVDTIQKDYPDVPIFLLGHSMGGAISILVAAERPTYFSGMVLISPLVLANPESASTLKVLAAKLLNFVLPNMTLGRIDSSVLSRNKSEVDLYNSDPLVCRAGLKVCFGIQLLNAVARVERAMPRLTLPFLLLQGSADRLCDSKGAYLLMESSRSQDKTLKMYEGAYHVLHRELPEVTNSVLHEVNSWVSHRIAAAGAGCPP

[5] = target: T5, Phosphatidylserine lipase ABHD16A (Mus musculus) (UniProt Q9Z1Q2); test: Inhibition of BAT5 in mouse brain at 0.01 to 100 uM treated for 30 mins by SDS-PAGE using rhodamine-tagged FP probe; in short: as §1
T5 sequence (whole entry): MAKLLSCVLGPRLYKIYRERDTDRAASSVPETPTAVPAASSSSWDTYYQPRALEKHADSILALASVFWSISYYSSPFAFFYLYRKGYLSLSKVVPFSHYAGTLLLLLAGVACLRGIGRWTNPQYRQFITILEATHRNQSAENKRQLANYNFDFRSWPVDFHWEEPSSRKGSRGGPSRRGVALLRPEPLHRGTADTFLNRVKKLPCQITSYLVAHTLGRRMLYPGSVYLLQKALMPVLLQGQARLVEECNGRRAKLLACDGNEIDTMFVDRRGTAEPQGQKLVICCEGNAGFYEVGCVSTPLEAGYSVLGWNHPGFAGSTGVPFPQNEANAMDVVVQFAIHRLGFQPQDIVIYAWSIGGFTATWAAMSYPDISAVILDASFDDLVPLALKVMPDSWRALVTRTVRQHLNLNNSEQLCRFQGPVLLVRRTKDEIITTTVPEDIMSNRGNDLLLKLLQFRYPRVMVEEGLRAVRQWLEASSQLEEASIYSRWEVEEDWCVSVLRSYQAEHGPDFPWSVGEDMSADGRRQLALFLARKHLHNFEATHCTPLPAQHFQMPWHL

[6] = target: T6, Monoacylglycerol lipase ABHD6 (Mus musculus) (UniProt Q8R2Y0); test: Inhibition of ABHD6 in mouse brain at 0.01 to 100 uM treated for 30 mins by SDS-PAGE using rhodamine-tagged FP probe; in short: as §1
T6 sequence (whole entry): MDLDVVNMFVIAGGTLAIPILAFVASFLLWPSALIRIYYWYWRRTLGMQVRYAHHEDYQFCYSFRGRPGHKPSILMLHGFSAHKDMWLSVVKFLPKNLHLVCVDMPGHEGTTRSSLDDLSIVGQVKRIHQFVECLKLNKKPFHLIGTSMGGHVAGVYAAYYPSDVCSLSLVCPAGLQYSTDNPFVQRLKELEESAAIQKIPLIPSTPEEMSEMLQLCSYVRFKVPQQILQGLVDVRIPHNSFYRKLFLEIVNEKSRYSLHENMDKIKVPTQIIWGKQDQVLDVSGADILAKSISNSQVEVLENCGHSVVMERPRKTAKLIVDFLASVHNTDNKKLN

Measured: Activity

CCCCCCCC/C=C\CCCCCCCC(=O)OC(COC)COP(C)(=O)F (stereo unspecified)
active: all assays above
